Data on 1 compound can be found in patent US20100015141A1, “4-PHENOXY-6-ARYL-1H-PYRAZOLO[3,4-D]PYRIMIDINE AND N-ARYL-6-ARYL-1H-PYRAZOLO[3,4-D]PYRIMIDIN-4-AMINE COMPOUNDS, THEIR USE AS MTOR KINASE AND PI3 KINASE INHIBITORS, AND THEIR SYNTHESES” (Wyeth, priority 2008, published 2010).

Amino acid sequences for entries named in this document (tags omitted).
UniProt P42336, whole entry: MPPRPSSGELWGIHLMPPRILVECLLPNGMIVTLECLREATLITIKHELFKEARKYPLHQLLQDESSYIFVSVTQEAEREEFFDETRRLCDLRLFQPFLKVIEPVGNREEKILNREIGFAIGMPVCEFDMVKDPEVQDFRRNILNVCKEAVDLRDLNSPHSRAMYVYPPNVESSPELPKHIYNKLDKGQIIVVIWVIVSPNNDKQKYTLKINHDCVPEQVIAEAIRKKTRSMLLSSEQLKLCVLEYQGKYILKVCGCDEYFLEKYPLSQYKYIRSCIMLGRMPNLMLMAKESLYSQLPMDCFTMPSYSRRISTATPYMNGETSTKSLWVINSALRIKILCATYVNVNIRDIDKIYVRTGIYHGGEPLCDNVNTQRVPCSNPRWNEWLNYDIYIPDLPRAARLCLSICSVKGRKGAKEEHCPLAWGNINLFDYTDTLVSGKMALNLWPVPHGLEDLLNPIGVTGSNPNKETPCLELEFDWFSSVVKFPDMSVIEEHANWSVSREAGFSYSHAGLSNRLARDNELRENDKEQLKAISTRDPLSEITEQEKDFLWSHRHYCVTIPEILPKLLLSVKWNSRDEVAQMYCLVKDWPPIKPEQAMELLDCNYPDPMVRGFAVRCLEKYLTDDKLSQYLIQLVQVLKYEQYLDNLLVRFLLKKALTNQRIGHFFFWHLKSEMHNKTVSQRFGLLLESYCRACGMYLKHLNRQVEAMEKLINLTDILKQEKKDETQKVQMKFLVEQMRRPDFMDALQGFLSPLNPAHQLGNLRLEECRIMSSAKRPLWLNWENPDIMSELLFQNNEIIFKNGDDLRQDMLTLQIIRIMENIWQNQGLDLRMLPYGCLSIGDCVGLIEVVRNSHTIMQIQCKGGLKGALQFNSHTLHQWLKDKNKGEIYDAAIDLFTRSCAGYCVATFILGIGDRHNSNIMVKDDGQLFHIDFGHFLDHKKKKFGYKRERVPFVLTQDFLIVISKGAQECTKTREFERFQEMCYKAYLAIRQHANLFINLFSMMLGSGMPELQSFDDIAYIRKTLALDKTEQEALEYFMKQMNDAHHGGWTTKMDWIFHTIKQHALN
UniProt P27986, whole entry partner: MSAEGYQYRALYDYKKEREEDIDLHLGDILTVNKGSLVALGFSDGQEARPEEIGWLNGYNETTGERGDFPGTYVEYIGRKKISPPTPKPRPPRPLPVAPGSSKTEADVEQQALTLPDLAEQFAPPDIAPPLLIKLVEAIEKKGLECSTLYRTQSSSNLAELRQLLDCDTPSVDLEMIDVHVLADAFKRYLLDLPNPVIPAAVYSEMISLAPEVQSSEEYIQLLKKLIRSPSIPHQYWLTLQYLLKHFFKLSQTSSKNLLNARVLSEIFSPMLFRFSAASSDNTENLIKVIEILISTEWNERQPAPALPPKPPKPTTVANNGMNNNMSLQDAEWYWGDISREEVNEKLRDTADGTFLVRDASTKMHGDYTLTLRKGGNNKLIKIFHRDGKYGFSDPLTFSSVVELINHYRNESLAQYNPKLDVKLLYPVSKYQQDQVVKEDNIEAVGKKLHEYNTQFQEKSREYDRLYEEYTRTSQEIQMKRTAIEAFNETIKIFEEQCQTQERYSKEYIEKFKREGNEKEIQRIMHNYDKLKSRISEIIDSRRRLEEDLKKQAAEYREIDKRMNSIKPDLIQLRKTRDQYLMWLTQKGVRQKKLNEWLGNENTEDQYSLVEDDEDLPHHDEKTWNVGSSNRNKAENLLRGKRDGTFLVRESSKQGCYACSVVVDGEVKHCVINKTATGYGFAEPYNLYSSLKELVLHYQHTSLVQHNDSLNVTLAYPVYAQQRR

The target of experiment [1] is PI3K-α (Homo sapiens, UniProt P42336). The experiment in a line: PI3K-alpha fluorescence polarization assay. The experiment is classed as biochemical. The note with it: read-out: PI3K-α avg IC50; 20 μM PIP2, 25 μM ATP; tested form: trifluoroacetate (TFA salt).
Experiment [2] has as its target mTOR (Homo sapiens, UniProt P42345). The experiment in a line: mTOR enzyme assay (DELFIA, His6-S6K phosphorylation). The note with it: read-out: mTOR avg IC50; 100 μM ATP, 1.25 μM His6-S6K; tested form: trifluoroacetate (TFA salt). The experiment is classed as biochemical.

Regarding `Cn1ncc2c(Nc3ccc(C(N)=O)cc3)nc(Nc3ccc(NC(=O)Nc4cccnc4)cc3)nc21`, the 50% inhibitory concentration (IC50) in experiment [1] came to 1 nM; in experiment [2], 13 nM.

By IC50 is commonly meant the concentration that inhibits the measured activity by half.
